Measured values taken from US6060516A, “N^1 -propargylhydrazines, N^2 -propargylhydrazines and their analogs for the treatment of depression, anxiety and neurodegeneration” (CV Technologies, Inc., priority 1998, dated 2000).

Assays:
[1] = system: serotonin uptake in rat striatal prisms; experiment: Serotonin (5-HT) uptake inhibition in rat striatal prisms in vitro; format: biochemical
Experimental: CVT-P040 was evaluated for the ability to inhibit serotonin uptake in rat striatal prisms using the procedure of Martin, I. L., Baker, G. B. and Mitchell, P. R. (1978), The effect of viloxazine hydrochloride on the transport of noradrenaline, dopamine, 5-hydroxytryptamine and γ-aminobutyric acid in rat brain tissue Neuropharmacology 17: 421-423. Briefly, untreated rats were killed by guillotine decapitation, their brains removed, placed on an ice-cooled plate and the striatum was dissected out from the rest of the brain. The striatum was then chopped into 0.1×0.1×2 mm prisms using a Mcllwain tissue chopper and suspended in 5 volumes incubation medium containing 123 mM sodium chloride, 5 mM potassium chloride, 2.7 mM calcium chloride, 1.2 mM magnesium sulphate, 20 mM TRIS-HCl buffer (pH 7.5), 1 mM ascorbic acid, 10 mM glucose and 12.5 μM nialamide. The suspension was stored out of direct light and buried in ice. Aliquots (1 ml) of the tissue suspension were added to flasks containing 4 ml of incubation medium and this mixture was incubated for 15 min at 37° C. in a shaking water bath. Next, 10 µl of the appropriate chemical was added to each tube except the blanks and controls, followed by the addition of 10 μl of ^3 H-5-HT (final concentration 0.1 μM). The mixtures were incubated for 5 min at 37° C., then quickly filtered with a Millipore vacuum filter apparatus and rinsed two times with 5 ml warm (37° C.) incubation medium. Filters were transferred to scintillation vials and 10 ml Ready Safe scintillation cocktail was added to each. Radioactive content per tube was counted using a liquid scintillation spectrophotometer. Percent 5-HT uptake inhibition was calculated by applying the following equation: [formula]

[2] = system: rat brain and liver monoamine oxidase-B; experiment: Monoamine oxidase-B inhibiting activity ex vivo; conditions: 5.75 μmol/kg, 5 hr, i.p. in 10% DMSO (Table 4, MAO-B by title)
Experimental: (§1) Radiolabelled β-phenylethylamine was employed as a substrate for monoamine oxidase-B. The compounds of interest were either injected intraperitoneally in DMSO or administered by gavage in water for various periods. The animals were killed by decapitation and the brains and livers immediately removed and frozen until assayed for monoamine oxidase-B activity. Tissues were homogenized and appropriately diluted in buffer prior to incubation. Incubations proceeded at 37° C. for 10 minutes. Incubation was terminated by the addition of acid and the radiolabelled product (phenylacetic acid) was extracted and quantified by liquid scintillation counting procedures. Incubations were done in triplicate and incubations containing phenelzine were included for comparison. The percent inhibition of monoamine oxidase-B activity compared to controls containing no drug was calculated.
Values are the mean ± the standard error based on (n) determinations.
Oral doses were administered as 75 μmol/kg on day 1, 75 μmol/kg on
day 2 and the animals were killed 5 hours later.

[3] = system: MAO-B; experiment: MAO-B inhibition ex vivo in DSP-4 treated mice (brain); set-up: species or system mouse
Experimental: as §1, with “Biochem. Pharmacol. 31: 1417-1424. Radiolabelled” for “Radiolabelled”
Neuroprotectant activity was evaluated by examining the prevention of DSP-4 induced noradrenaline depletion in mouse hippocampus as described in Yu, P. H., Davis, B. A., Fang, J. and Boulton, A. A. (1994), Neuroprotective effect of some monoamine oxidase-B inhibitors against DSP-4 induced noradrenaline depletion in the mouse hippocampus, J. Neurochem. 63: 1820-1828. Briefly, mice were injected (i.p.) with either 20% DMSO or potential neuroprotectants (10 mg/kg in 20% DMSO). […]

| SMILES | % Inhibition (serotonin uptake) ([1]; 1 × 10^4 M (so in the source)) [%] | % Inhibition (serotonin uptake) ([1]; 1 × 10^-5 M) [%] | % Inhibition (serotonin uptake) ([1]; 1 × 10^-6 M) [%] | % Inhibition of Monoamine Oxidase-B ([2]; brain) [%] | % Inhibition of Monoamine Oxidase-B ([2]; liver) [%] | MAO-B % Inhibition ([3]; 10 mg/kg i.p. then DSP-4 50 mg/kg, 20% DMSO control experiment) [%] | MAO-B % Inhibition ([3]; 10 mg/kg then DSP-4 50 mg/kg, saline control experiment) [%] |
| --- | --- | --- | --- | --- | --- | --- | --- |
| CNCCC(Oc1ccc(C(F)(F)F)cc1)c1ccccc1 (stereo not shown) [Fluoxetine, reference compound] | 93.2 ± 3.5 | 79.9 ± 8.6 | 67.7 ± 5.4 |  |  |  |  |
| C#CCN(C)[C@H](C)Cc1ccccc1 [(-)-deprenyl, reference compound] |  |  |  | 42.0 ± 9.9 | 63.7 ± 2.0 | 64.8 ± 2.5 | 52.3 ± 3.0 |
